Reference: patent US20150018528A1 (Novo Nordisk, published 2015)

The chains behind the UniProt entries cited, without tags or fusion partners. Residues count along the entry.
UniProt Q9NP99, 21-234: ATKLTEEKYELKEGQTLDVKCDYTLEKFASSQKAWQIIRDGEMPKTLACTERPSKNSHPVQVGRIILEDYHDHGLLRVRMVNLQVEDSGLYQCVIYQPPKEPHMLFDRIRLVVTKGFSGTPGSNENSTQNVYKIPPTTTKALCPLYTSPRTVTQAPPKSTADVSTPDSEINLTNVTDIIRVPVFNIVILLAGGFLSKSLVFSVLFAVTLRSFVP

Target: human TREM-1 on BWZ.36/hTREM-1:DAP12:NFAT-LacZ reporter cells (human, UniProt Q9NP99 21-234)
Assay: cell-based or functional assay

B1: hPGLYRP1-GPI on HEK293-6E cells (ligand, human, UniProt O75594 22-196, looked up)
chain: QETEDPACCSPIVPRNEWKALASECAQHLSLPLRYVVVSHTAGSSCNTPASCQQQARNVQHYHMKTLGWCDVGYNFLIGEDGLVYEGRGWNFTGAHSGHLWNPMSIGISFMGNYMDRVPTPQAIRAAQGLLACGVAQGALRSNYVLKGHRDVQRTLSPGNQLYHLIQNWPHYRSP
modifications: C-terminal GPI anchor
Fold activity of BWZ/hTREM1 reporter cells co-incubated with transfected HEK293 6E cells, without PGN, against empty vector: 2 fold
